Source: patent US11236106B2, “Cycloalkane-1,3-diamine derivative” (Daiichi Sankyo Company, Limited, priority 2018, dated 2022)

Tests used:
MV-4-11 cells = settings: read-out: GI50, cell growth inhibitory activity, MV-4-11, day 7, cultured 7 days, assigned by order and values, Hydrochloride
MOLM-13 cells = settings: read-out: GI50, cell growth inhibitory activity, MOLM-13, day 7, cultured 7 days, assigned by order and values, Hydrochloride

GI50 (MV-4-11 cells): 201 nM
GI50 (MOLM-13 cells): 501 nM
SMILES: COc1nc(N(C)C2CC(NCC3CCC(c4cc(OC)c(OC)nn4)CC3)CC2O)c2cc(CC(F)(F)F)sc2n1 (single isomer, unassigned) [Example 128B, Hydrochloride]

Structures can show the parent of a compound that is named as a salt.
